Measured affinities in a library of Ab-14 heavy chain variants

The measurements come from Engelhart et al. 2022 (doi:10.1038/s41597-022-01779-4) through the FLAb antibody collection.

The target is the same throughout: PDVDLGDISGINAS, from the HR2 region of SARS-CoV-2 spike.

Parent scFv Ab-14: VH joined to VL by three GGGGS repeats. Changes lie in the heavy chain CDRs alone.
VH: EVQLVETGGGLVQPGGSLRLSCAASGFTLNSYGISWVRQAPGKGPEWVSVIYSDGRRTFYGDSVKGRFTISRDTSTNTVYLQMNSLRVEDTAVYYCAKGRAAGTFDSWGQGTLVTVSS
VL: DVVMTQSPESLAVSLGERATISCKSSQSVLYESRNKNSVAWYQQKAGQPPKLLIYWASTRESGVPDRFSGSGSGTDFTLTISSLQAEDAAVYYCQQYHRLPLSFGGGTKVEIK

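The library (AAYL49) carries one to three amino acid substitutions per variant, with no insertions or deletions. In AlphaSeq, yeast of one mating type display the scFv and yeast of the other type display the target. After mating in shaken culture at 30 °C for 16 h, diploids were selected and their barcode pairs sequenced. Scores were corrected for input abundance and mapped to Kd with protein pairs of known affinity run in the same pool. Each pool was mated in three replicate cultures.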

The whole VH of each variant is written out.
Numbers give log10(Kd / nM), so 0 is 1 nM and 3 is 1 µM. Smaller is tighter.
A mean of the replicates is given; it leaves out those without a signal.
"ND" marks a missing value. The strain was present, yet no cells mated with the target were sequenced in that replicate, which points to weak or no binding.
As a blank, each scFv also met three strains without target: over library AAYL49, 15% of these pairings were detected, typically at 4.06 and seldom below 2.83. The control count says in how many pairings with the empty strains this scFv gave a signal, with their mean in brackets.

VH	log10 Kd, replicates	log10 Kd (nM), mean	signal with controls
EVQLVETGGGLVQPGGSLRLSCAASGFTLNSYGISWVRQAPGKGPEWVSPIYSDGRRTFYGLSVKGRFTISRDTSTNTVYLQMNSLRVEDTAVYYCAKMRAAGTFDSWGQGTLVTVSS	ND / ND / ND	ND	1/9 (4.07)
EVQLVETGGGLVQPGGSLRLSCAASGFTLNSEGISWVRQAPGKGPEWVSVIYSDSRRTFYYDSVKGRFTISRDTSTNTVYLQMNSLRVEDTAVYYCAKGRAAGTFDSWGQGTLVTVSS	ND / ND / ND	ND	2/9 (4.24)
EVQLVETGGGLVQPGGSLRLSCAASGFTLNSYGISWVRQAPGKGPEWVSVIYSHGRRTFYADSVKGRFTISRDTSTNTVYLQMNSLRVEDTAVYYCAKGRAAGTFWSWGQGTLVTVSS	ND / ND / ND	ND	0/9
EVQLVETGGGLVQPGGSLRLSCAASGFTLNSYEISWVRQAPGKGPEWVSVIYSDGRRTFYGDSVKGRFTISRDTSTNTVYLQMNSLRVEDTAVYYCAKGRKAGTFDAWGQGTLVTVSS	ND / ND / ND	ND	1/9 (2.67)
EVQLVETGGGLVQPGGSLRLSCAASGRTLNSYGISWVRQAPGKGPEWVSVIYSDGMRTFYGDSVKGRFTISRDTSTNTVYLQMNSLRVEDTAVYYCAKGRCAGTFDSWGQGTLVTVSS	2.10 / 2.40 / ND	2.25	1/9 (2.27)
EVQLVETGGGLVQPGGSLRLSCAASGFYLNSYGISWVRQAPGKGPEWVSVIYSDHRRTFYGDSVKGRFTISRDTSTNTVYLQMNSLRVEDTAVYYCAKGRWAGTFDSWGQGTLVTVSS	ND / ND / ND	ND	0/9
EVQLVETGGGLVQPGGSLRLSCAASQFTLNSYGISWVRQAPGKGPEWVSVIYLDGRRTFYGDSVKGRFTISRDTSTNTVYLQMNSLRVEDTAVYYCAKGTAAGTFDSWGQGTLVTVSS	4.09 / 4.09 / 4.03	4.07	5/9 (4.87)
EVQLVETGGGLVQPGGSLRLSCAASGFTLNSYGIYWVRQAPGKGPEWVSVIYSIGRVTFYGDSVKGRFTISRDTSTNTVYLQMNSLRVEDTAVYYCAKGRAAGTFDSWGQGTLVTVSS	ND / ND / ND	ND	0/9
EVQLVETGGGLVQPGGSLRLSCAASGFTMNSYGISWVRQAPGKGPEWVSVIYSDGHRTFYKDSVKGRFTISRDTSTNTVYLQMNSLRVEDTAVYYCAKGRAAGTFDSWGQGTLVTVSS	3.14 / 2.04 / ND	2.59	0/9
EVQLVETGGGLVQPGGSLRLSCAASGFTLNSYLIIWVRQAPGKGPEWVSVIYSDGRRTFTGDSVKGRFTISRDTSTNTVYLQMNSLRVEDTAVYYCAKGRAAGTFDSWGQGTLVTVSS	ND / 2.64 / ND	2.64	1/9 (2.49)
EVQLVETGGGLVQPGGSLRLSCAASGFTLFSHGTSWVRQAPGKGPEWVSVIYSDGRRTFYGDSVKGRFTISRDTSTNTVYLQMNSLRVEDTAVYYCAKGRAAGTFDSWGQGTLVTVSS	ND / ND / ND	ND	0/9
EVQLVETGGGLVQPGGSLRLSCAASGFTVNSYGISWVRQAPGKGPEWVSVIYSDGRTTFYGDSVKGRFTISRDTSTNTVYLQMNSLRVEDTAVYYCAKGRACGTFDSWGQGTLVTVSS	ND / ND / ND	ND	0/9
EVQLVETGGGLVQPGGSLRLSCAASGFTWNSYGISWVRQAPGKGPEWVSVIHSDGRRTFYGDSVKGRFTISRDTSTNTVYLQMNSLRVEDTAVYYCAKGRAACTFDSWGQGTLVTVSS	ND / ND / ND	ND	0/9
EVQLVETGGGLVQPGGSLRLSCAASGFTLNSYGPSWVRQAPGKGPEWVSVIDSDGRRTRYGDSVKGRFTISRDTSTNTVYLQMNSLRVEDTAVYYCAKGRAAGTFDSWGQGTLVTVSS	ND / 3.98 / ND	3.98	1/9 (4.72)
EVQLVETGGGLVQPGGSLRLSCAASGFTLNSYTISWVRQAPGKGPEWVSVIYSDGRRTFYGDMVKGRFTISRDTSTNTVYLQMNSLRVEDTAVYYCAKGRAAGTQDSWGQGTLVTVSS	ND / ND / ND	ND	0/9
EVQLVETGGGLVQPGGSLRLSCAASCFTLNSYGISWVRQAPGKGPEWVSVIYSDGRRTKYGDSVKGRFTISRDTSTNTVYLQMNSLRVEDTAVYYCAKGRAAGTFDSWGQGTLVTVSS	ND / ND / ND	ND	0/9
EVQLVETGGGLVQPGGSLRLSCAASGFTLNEYGISWVRQAPGKGPEWVSVIYSDGRRTFYGDSVKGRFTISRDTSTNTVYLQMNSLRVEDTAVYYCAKGQAAGTFDCWGQGTLVTVSS	0.68 / 1.12 / 0.94	0.91	0/9
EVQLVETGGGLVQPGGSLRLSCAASGFTLNSYGISWVRQAPGKGPEWVSVIYSDRRRRFYGDSVKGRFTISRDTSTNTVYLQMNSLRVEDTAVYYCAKGRAAGTHDSWGQGTLVTVSS	ND / ND / ND	ND	0/9
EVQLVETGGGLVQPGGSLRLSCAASGFTGNSYGISWVRQAPGKGPEWVSVIYSDGRRTFYGDSPKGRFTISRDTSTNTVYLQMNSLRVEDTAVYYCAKGRAAGTFISWGQGTLVTVSS	5.78 / 4.64 / 4.61	5.01	7/9 (4.69)
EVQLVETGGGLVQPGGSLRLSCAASGFTLNSYGISWVRQAPGKGPEWVSVIYSDPRRTFYGDSVKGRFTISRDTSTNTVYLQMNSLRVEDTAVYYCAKGRAAGTFRSWGQGTLVTVSS	ND / ND / ND	ND	0/9
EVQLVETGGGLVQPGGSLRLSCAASGFTLNSYGISWVRQAPGKGPEWVSVHYSDYRRFFYGDSVKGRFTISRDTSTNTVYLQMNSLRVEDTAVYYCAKGRAAGTFDSWGQGTLVTVSS	ND / ND / ND	ND	2/9 (3.03)
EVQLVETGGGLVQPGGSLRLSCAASGFTLNSYGISWVRQAPGKGPEWVSVIYDDGRRTFWGDSVKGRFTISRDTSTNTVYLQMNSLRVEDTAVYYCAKVRAAGTFDSWGQGTLVTVSS	ND / ND / ND	ND	3/9 (4.38)

Repeated from above, the 3 best binders with a signal in all replicates:

VH	log10 Kd, replicates	log10 Kd (nM), mean	signal with controls
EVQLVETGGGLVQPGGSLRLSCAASGFTLNEYGISWVRQAPGKGPEWVSVIYSDGRRTFYGDSVKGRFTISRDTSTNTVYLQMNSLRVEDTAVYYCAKGQAAGTFDCWGQGTLVTVSS	0.68 / 1.12 / 0.94	0.91	0/9
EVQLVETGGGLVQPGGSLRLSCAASQFTLNSYGISWVRQAPGKGPEWVSVIYLDGRRTFYGDSVKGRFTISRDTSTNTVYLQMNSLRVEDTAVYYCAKGTAAGTFDSWGQGTLVTVSS	4.09 / 4.09 / 4.03	4.07	5/9 (4.87)
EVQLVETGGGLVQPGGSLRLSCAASGFTGNSYGISWVRQAPGKGPEWVSVIYSDGRRTFYGDSPKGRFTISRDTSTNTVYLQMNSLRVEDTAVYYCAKGRAAGTFISWGQGTLVTVSS	5.78 / 4.64 / 4.61	5.01	7/9 (4.69)